In publication PMC7520419 (The AAPS Journal, 2020):

Experiment: pKa

pKa (b, basic): 8.99b
SMILES: CC[C@H]1OC(=O)[C@H](C)[C@@H](O[C@H]2C[C@@](C)(OC)[C@@H](O)[C@H](C)O2)[C@H](C)[C@@H](O[C@@H]2O[C@H](C)C[C@H](N(C)C)[C@H]2O)[C@](C)(OC)C[C@@H](C)C(=O)[C@H](C)[C@@H](O)[C@]1(C)O [Clarithromycin]
